Values of other authors, collected in patent US20250120912A1, “SYNERGISTIC NANOMEDICINE DELIVERING TOPOISOMERASE I TOXIN (SN-38) AND INHIBITORS OF POLYNUCLEOTIDE KINASE 3'-PHOSPHATASE (PNKP) FOR ENHANCED TREATMENT OF COLORECTAL CANCER” (THE GOVERNORS OF THE UNIVERSITY OF ALBERTA, priority 2021, published 2025).

Tested on: carboxylesterase
Details: literature [6, 7]; cell dependent; cited from earlier work

CCc1c2c(nc3ccc(OC(=O)N4CCC(N5CCCCC5)CC4)cc13)-c1cc3c(c(=O)n1C2)COC(=O)[C@]3(O)CC [Irinotecan, 7-ethyl-10-[4-(1-piperidino)-1-piperidino] carbonyloxycamptothecin]
conversion from irinotecan to SN-38: < 10%
